Ab-14 light chain CDR variants: yeast mating affinities

Values reported by Li et al. 2023, doi:10.1038/s41467-023-39022-2 (FLAb copy).

Binding partner: SARS-CoV-2 spike HR2 peptide, sequence PDVDLGDISGINAS.

Parent scFv Ab-14: VH joined to VL by the linker GGGGSGGGGSGGGGS. Changes lie in the light chain CDRs alone.
VH: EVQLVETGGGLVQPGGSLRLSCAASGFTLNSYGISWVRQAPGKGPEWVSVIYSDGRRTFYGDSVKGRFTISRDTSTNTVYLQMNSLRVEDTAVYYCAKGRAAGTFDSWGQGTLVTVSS
VL: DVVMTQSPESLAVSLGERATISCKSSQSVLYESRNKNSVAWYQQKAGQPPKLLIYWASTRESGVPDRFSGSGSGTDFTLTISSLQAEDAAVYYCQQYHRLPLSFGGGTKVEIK

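The parent was found by panning a naive human phage display library on the peptide. Designed CDR sequences, proposed from the first random library and measured here. Several design methods are mixed in this list. The scFvs were displayed on barcoded MATa yeast, the peptide on MATalpha yeast. Binding brings cells together so that they mate, and sequencing counts the barcode pairs among the diploids. The ratio of observed to expected reads was calibrated, replicate by replicate, on BCL2-family standards whose Kd was known from biolayer interferometry. Each pool was mated in six replicate cultures.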

Each variant is given by its three light chain CDRs, as the data file delimits them; those of the parent are KSSQSVLYESRNKNSVA, WASTRES, QQYHRLPLS.
Scale: log10 of Kd in nM, estimated from mating counts; low values are strong binders.
A mean of the replicates is given; it leaves out those without a signal.
"not detected" means that the variant was in the library but no mating with the target was seen in any replicate; the authors take this as a sign of poor binding, and no number exists.

CDR-L1,CDR-L2,CDR-L3,"mean, log10 nM",replicates with signal
KSSQSVSQENQNKGSVA,WASTRES,QQYHGHPLS,2.91,1 of 6
KSNQSVLYESRNKNSVA,WRSTRES,QQYHRLTLS,not detected,0 of 6
KSQMSWEYESRNSNSVA,QASTREL,QQYHRLPLI,0.33,6 of 6
KLQQSTLYESRNPNSVA,NASTRES,QQYHRLPLS,-0.47,6 of 6
MISQMYNMGSFAINSVA,QASLRND,QQYDRLPLT,2.41,4 of 6
HISQSVGMTVRNKNSVA,ENSTRED,QQYDRLPLS,2.51,4 of 6
KSSQSVLFESRNKNSVA,MASTRES,PQYHRLPLS,1.53,6 of 6
KLRESHHVESKQKNNVA,DNSTRES,QDYHRLPLS,2.12,5 of 6
KSSQSVAYESMNKNSVA,NASTRES,QQYHRLPLS,0.45,6 of 6
MLLQATMYGERNRNSVA,HAATRED,QQYHRLPLI,1.20,6 of 6
KSNQSVLGEDRNMNSVA,WASTRAS,QQYHRLPLS,0.80,6 of 6
KLSLSLSFSLRGTRAIA,DGSTRAH,QQYHRLPLT,0.63,6 of 6
TIGSTLMYGQRNRSNVA,EVSERLN,QQYDRLPLL,1.47,6 of 6
KISYMGEHFSTNHSAIA,QAETREQ,QQYHRLPIS,1.07,6 of 6
KLSMSELYESRMKNSVA,EASQREE,QQYHRLPLS,-0.07,6 of 6
MLLQSTWYGERNRNSVA,HASTRED,QQYHRLPLI,1.34,6 of 6
KVSQSTLYESLMKNSVA,NASVRSQ,QQYHRLPLS,-0.01,6 of 6
HITMGMYVAGRHYSSIA,QAEERAK,QQYDRLPLM,1.56,6 of 6
FLSQSVLYESRNKNSVA,NASTRES,QDYHRLPLS,-0.32,6 of 6
KSSISYLYESENKRSVA,SASQRES,QQYHRLPLS,0.52,6 of 6
NVGQLMDGASRNKNSVA,HQSTRED,QHYHRLPLS,1.48,6 of 6
KSSQSELYESRNKNSVA,WASTRES,QQYHRLPLS,1.84,4 of 6
KLSLFYRVETMQKNSVA,DNSTRES,QDYDRLPLS,3.20,2 of 6
KSAYSEPYESRNKNSVA,DASTRSS,QQYHRLPLS,0.36,6 of 6
KVSQSKLYESRNKNSVA,QASTRES,QQQHRLPIS,not detected,0 of 6

The remaining entries, values ahead:

"mean, log10 nM",replicates with signal,CDR-L1,CDR-L2,CDR-L3
0.20,6 of 6,KLGSSVAMTSRMKNNVA,DLNERER,QQYHRLPLS
0.32,6 of 6,MMSSLMGYESRHINNVA,QTTTREE,QQYDRLPLV
1.01,6 of 6,KISYMGEYFSTNHSAIA,QASTRVQ,QQYHRLPIS
0.67,6 of 6,TISQVMNTLTRHGNNVA,DLQERES,QQYFRLPLS
-0.49,6 of 6,KLEQSVLYESRNKNNVA,GASTRES,QQYHRLPLS
-0.09,6 of 6,KFSQSNPYETRNKNSVA,EASQREE,QQYHRLPLS
1.38,6 of 6,TIGQTLMSGVKNRSNVA,EVSQRLN,QQYDRLPLL
0.31,6 of 6,KSSQSVLYEPRNRNSVA,WGSTRES,QQYHRLPLS
0.34,6 of 6,KVPQSQLYESRNKNSVA,NASQRES,QQYHRLPLS
1.24,6 of 6,KQQFSVLMESRQCNSVA,EASTREE,QQYHRLPLS
1.02,6 of 6,KLRQSTLYESRNPNSVA,KASTRES,QQYHRLPLS
-0.03,6 of 6,SLYESMGYLSHNKNSIA,DMSRREN,QQYHRLPLS
2.53,4 of 6,KSSTSVLYESRNKNSVA,WASTREN,QQYHRLPLS
0.27,6 of 6,KLSQSWLYESRNFWSVA,GASTRES,QQYHRLPLS
not detected,0 of 6,IVSQLMLWGWHAKNSIA,EAQTRVN,QQYDRLPLF
1.19,6 of 6,KQSQSVLYESRNKNSVA,DASTRES,QQYHRLPEI
0.59,6 of 6,KFGQMVLTGAYVSNSVA,QMSTRVN,QQYHRLPLI
2.55,5 of 6,KLQQSVMFMSGVYNSVA,QMSTRAE,QCYNRLPLS
3.14,3 of 6,HLLQTVMYGSYRKNSVA,HAQTREN,QQYHRLPLS
0.29,6 of 6,KLSGQMLYEERNSNSVA,HASHRES,QQYHRLPLS
0.57,6 of 6,SISGFMKSLSAHANSVA,DMTNREN,QQYDRLPLS
0.19,6 of 6,KFSQSEDYESRNKWSVA,NAQTRMS,QQYHRLPLS
not detected,0 of 6,KSSWSVLYESRNKNSVA,WASTRES,QSEHRLPLS
2.01,5 of 6,KSSQSVLWEERNKNSVA,WASTRES,QQYHRLPLS
-0.12,6 of 6,TISGLMNHMMRNSNNVA,NMDMREM,QQYDRLPLS
0.71,6 of 6,KLGSATRFESSNKASIA,DNSTREK,QQYHRLPLS

Extract of 8 entries:

CDR-L1,CDR-L2,CDR-L3,"mean, log10 nM",replicates with signal
KLEQSVLYESRNKNNVA,GASTRES,QQYHRLPLS,-0.49,6 of 6
KLGSATRFESSNKASIA,DNSTREK,QQYHRLPLS,0.71,6 of 6
KVSQSKLYESRNKNSVA,QASTRES,QQQHRLPIS,not detected,0 of 6
KSSQSVLWEERNKNSVA,WASTRES,QQYHRLPLS,2.01,5 of 6
KSAYSEPYESRNKNSVA,DASTRSS,QQYHRLPLS,0.36,6 of 6
TIGSTLMYGQRNRSNVA,EVSERLN,QQYDRLPLL,1.47,6 of 6
KQQFSVLMESRQCNSVA,EASTREE,QQYHRLPLS,1.24,6 of 6
HISQSVGMTVRNKNSVA,ENSTRED,QQYDRLPLS,2.51,4 of 6

In the paper, a design with two or fewer of six values counts as a poor binder.
Of ten entries with the parent sequence, four were seen in most replicates (averages 0.34 to 2.37), three in one and three in none, so single entries are noisy.
Background: pairings of all light chain designs with three empty control strains gave a value in 4% of cases (median 2.64, 5th percentile 1.59). Values in that range, when seen in few replicates, are hard to tell from nonspecific mating.
A sequence measured in both rounds can read differently, since the two assays cover different ranges.